Consider one compound from patent publication US20170275270A1, “BENZYL SUBSTITUTED INDAZOLES” (Bayer Pharma Aktiengesellschaft, priority 2014, published 2017).

Protein sequences, listed by entry. Tags and fused reporters are not part of them. Residues count along the entry.
UniProt O43683, whole entry: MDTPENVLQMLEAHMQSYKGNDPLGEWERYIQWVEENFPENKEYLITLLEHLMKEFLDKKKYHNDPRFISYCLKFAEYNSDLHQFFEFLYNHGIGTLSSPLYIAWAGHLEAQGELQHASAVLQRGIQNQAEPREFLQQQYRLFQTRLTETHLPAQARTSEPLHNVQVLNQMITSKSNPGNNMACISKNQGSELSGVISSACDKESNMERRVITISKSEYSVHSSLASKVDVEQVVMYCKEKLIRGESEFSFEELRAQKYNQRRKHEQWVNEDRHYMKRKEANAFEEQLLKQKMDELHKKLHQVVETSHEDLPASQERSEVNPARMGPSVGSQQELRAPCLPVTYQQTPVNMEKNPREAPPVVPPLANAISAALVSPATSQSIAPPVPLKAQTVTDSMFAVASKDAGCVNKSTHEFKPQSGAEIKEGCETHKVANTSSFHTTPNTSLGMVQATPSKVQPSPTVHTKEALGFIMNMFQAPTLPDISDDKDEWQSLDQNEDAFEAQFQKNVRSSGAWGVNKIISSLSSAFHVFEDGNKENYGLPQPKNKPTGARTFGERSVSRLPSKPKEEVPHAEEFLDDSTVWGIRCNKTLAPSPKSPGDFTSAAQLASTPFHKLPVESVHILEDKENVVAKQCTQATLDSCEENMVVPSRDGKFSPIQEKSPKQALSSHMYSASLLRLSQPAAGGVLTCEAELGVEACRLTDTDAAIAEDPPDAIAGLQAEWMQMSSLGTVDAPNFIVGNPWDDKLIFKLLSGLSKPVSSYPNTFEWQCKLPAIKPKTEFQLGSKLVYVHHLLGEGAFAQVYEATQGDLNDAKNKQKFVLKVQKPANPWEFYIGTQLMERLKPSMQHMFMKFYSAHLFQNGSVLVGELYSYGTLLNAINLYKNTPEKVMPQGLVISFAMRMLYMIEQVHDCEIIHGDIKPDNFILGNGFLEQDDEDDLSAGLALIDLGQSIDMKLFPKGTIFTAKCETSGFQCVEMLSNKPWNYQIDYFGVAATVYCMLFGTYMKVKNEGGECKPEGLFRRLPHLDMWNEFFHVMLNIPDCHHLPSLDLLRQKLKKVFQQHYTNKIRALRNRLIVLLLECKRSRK
UniProt O43683, 704-1085 limits assumed: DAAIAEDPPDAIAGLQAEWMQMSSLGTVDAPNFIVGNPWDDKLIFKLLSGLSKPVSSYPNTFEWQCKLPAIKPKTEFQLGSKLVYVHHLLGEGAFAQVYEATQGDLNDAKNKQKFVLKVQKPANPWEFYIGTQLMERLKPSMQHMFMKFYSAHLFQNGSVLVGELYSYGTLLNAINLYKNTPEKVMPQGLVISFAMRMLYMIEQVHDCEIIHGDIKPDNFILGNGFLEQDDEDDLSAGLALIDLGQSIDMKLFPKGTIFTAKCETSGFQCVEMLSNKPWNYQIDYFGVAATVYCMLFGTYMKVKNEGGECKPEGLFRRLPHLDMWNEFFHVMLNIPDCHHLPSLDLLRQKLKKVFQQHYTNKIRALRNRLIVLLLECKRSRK

pIC50: −log10 of the molar value.

The test system of one assay is HeLa. Briefly: Proliferation assay (HeLa cell line).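 Also: crystal violet staining of cell number, scaled between a plate stained before dosing (0%) and cells left untreated (100%), compounds tested at 0.001-10 µM, IC50 via 4-parameter fit.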 Conditions: read-out: Biological Assay 2: Proliferation assay (HeLa cell line) median IC50, 4 days, crystal violet.
In a further assay the target is Bub1 (Homo sapiens, UniProt O43683). Briefly: Formation-Assay: phosphorylation status of histone 2A by inhibition of kinase activity of Bub1. Conditions: read-out: Biological Assay 4.1: H2A Formation IC50; co-treatment with Nocodazole 1 μg/ml, 16 h. It is filed as cell-based.
Assay [1] addresses catalytic domain of human Bub1 (amino acids 704-1085) (Homo sapiens, UniProt O43683). Briefly: Bub1 kinase assay (TR-FRET). In kind it is biochemical. As to conditions: read-out: Biological Assay 1: Bub1 kinase assay median IC50, 10 μM ATP. In general terms: Time-resolved FRET reads energy transfer from a long-lived donor to a nearby acceptor.
In assay [2] the test system is HeLa human cervical tumor cells. Briefly: Proliferation assay (HeLa+Paclitaxel).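 Also: compounds at 0.001-10 µM added 4 h after paclitaxel, 92 h exposure, absorbance normalized to zero-point plate (0%) and untreated cells (100%), IC50 from 4-parameter fit.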 As to conditions: read-out: Biological Assay 3: HeLa + Paclitaxel IC50, 3 nM paclitaxel, crystal violet.

As to `CCOc1cc(F)c(Cn2nc(-c3ncc(CCC[S@@+](C)[O-])c(Nc4ccncc4)n3)c3ccccc32)c(F)c1`, the pIC50 was 5.14 in the assay with HeLa, 6.54 at Bub1, 8.25 in assay [1] and 6.82 in assay [2].
